Measurements taken from ChEMBL document CHEMBL5537119 (Eur J Med Chem, 2024).

Legend:
[1] = species on record: Homo sapiens; assay: Selectivity index, ratio of IC50 for inhibition of human recombinant HDAC8 to IC50 for inhibition of human recombinant HDAC4
[2] = species on record: Homo sapiens; assay: Selectivity index, ratio of IC50 for inhibition of human recombinant HDAC6 to IC50 for inhibition of human recombinant HDAC4
[3] = species on record: Homo sapiens; assay: Selectivity index, ratio of IC50 for inhibition of human recombinant HDAC2 to IC50 for inhibition of human recombinant HDAC4

Row | SMILES | Ratio IC50 [1] | Ratio IC50 [2] | Ratio IC50 [3]
1 | O=C(NCCc1c[nH]c2ccccc12)c1ccc(-c2noc(C(F)(F)F)n2)cc1 | > 139 | > 139 | > 139
2 | CN(C)c1ccc(CNC(=O)c2ccc(-c3noc(C(F)(F)F)n3)cc2)cc1 | > 108 | > 108 | > 108
3 | O=C(NOCc1coc(-c2ccccc2)n1)c1ccc(-c2noc(C(F)(F)F)n2)cc1 | > 847 | > 847 | > 847
4 | CCN(CC)CCCCNC(=O)c1ccc(-c2noc(C(F)(F)F)n2)cc1 | 48 | 40 | 183
5 | CCN(CC)CCN(C)C(=O)c1ccc(-c2noc(C(F)(F)F)n2)cc1 | 55 | 85 | 250
6 | O=C(Nc1cnc2ccccc2c1)c1ccc(-c2noc(C(F)(F)F)n2)cc1 | 18 | 18 | 18
7 | CN(C(=O)c1ccc(-c2noc(C(F)(F)F)n2)cc1)c1ccccc1 | 114 | 31 | > 158
8 | CN1CCN(C(=O)c2ccc(-c3noc(C(F)(F)F)n3)cc2)CC1 | 14 | 47 | 68
